Source: patent US20070059825A1

Target: human zalpha11 receptor (full-length, on cells) (human) (UniProt Q9HBE5)
Assay: cell-based or functional assay

STAT luciferase reporter response of BaF3/KZ134/Zalpha11 cells, fold over media-only control at 50% conditioned media: 40 fold
proliferation of BaF3/Zalpha11 cells (Alamar Blue), fold over background at 50% conditioned media: 5 fold
Substance: mouse zalpha11 Ligand (from UniProt Q9ES17 18-146)
